From patent publication US20110144018A1, “AGENT FOR PROPHYLAXIS OF REFLEX SYMPATHETIC DYSTROPHY AFTER CEREBRAL APOPLEXY” (priority 2006, published 2011)

Assays:
[1] = tested on: patients with hemiplegia attributed to cerebrovascular disease (stroke), post-stroke RSD (shoulder-hand syndrome); parameters: species or system human; conditions: in vivo
Text: Test subjects were 33 patients with hemiplegia attributed to cerebrovascular disease (stroke) at Brunnstrom stage III or lower in either the upper limb or a finger on admission. Patients already developing RSD (shoulder-hand syndrome) on admission and patients with pain in the shoulder joint or swollen paralyzed limbs were excluded from the test. To 12 of these 33 test subjects, 20 units of elcatonin (Elcitonin Injection 20S; Asahi-Kasei Pharma; hereinafter, referred to as EL) were intramuscularly administered once a week immediately after admission (EL administration group). On the other hand, 21 test subjects were classified into a rehabilitation alone group (control group) and compared with the EL administration group. Physical therapy and therapeutic exercise, occupational therapy, and the management of the paralyzed limbs were performed thoroughly in all the cases. […] EL administration was initiated 11 to 59 days after an attack of stroke (25.8 days on average) and continued until 5 months after the attack of stroke. The same observation period was applied to the control group. […]
Activities of daily living (ADL) were evaluated on the basis of the Barthel Index (BI) and the range of motion (ROM) of shoulder joint. […]

[2] = Dose relative to drip infusion in vein, from serum concentration; type: in vivo; conditions: intramuscular versus drip infusion in vein; company data
[3] = in vivo; cited from earlier work

Substance: 1-butyric acid-7-(L-2-aminobutyric acid)-26-L-aspartic acid-27-L-valine-29-L-alanine-calcitonin [EL]
- Side effects during the test period [1]: no significant or serious side effect
- Intramuscular dose relative to drip infusion in vein for equal maximum serum concentration [2]: approximately 1.5 times
- Maximum serum concentration compared with 200 units transnasal salmon calcitonin (37 pg/mL) [3]: almost the same concentration
